The nature of data set [1]: Cassette pharmacokinetic study in mice. The settings on record: ICR mice, PO, cassette dosing.
In another data set the test system is A431. The data set can be described thus: CellTiter-Glo cell proliferation inhibition assay. The settings on record: read-out: Antiproliferative activity (IC50 (nM)) A431; A431 cells; 72 hours; CTG.
The subject of data set [2] is Ba/F3 (EGFR-L858R/T790M/C797S). The data set can be described thus: CellTiter-Glo cell proliferation inhibition assay. To be noted: read-out: Antiproliferative activity (IC50 (nM)) Ba/F3 EGFR LR/TM/CS; Ba/F3 (EGFR-L858R/T790M/C797S) cells; 72 hours; CTG. For orientation: ATP-based viability assays read luminescence as a measure of living cells.
In the next data set the test system is Ba/F3 EGFR wt+EGF. Briefly: CellTiter-Glo cell proliferation inhibition assay. The settings on record: read-out: Antiproliferative activity (IC50 (nM)) Ba/F3 EGFR wt+EGF; Ba/F3 EGFR wt cells with EGF stimulation; 72 hours; CTG.
The next data set deals with PC9. Briefly: CellTiter-Glo cell proliferation inhibition assay. The settings on record: read-out: Antiproliferative activity (IC50 (nM)) PC9; PC9 cells; 72 hours; CTG.
The test system of another data set is NCI-H1975. The data set can be described thus: CellTiter-Glo cell proliferation inhibition assay. To be noted: read-out: Antiproliferative activity (IC50 (nM)) NCI-H1975; NCI-H1975 cells; 72 hours; CTG.
The test system of a further data set is Ba/F3 (EGFR-L858R/C797S). The data set can be described thus: CellTiter-Glo cell proliferation inhibition assay. The settings on record: read-out: Antiproliferative activity (IC50 (nM)) Ba/F3 EGFR LR/CS; Ba/F3 (EGFR-L858R/C797S) cells; 72 hours; CTG.
The target of a further data set is P-gp (Homo sapiens, UniProt P08183). The data set can be described thus: P-gp substrate evaluation assay (MDCKII-MDR1 Transwell permeability). The settings on record: MDCKII-MDR1 cells; Papp basolateral to apical / apical to basolateral; 2 hours; pH 7.4.

Sequences of proteins named here, by UniProt entry; tags and fusion partners are left off.
UniProt P08183, whole entry: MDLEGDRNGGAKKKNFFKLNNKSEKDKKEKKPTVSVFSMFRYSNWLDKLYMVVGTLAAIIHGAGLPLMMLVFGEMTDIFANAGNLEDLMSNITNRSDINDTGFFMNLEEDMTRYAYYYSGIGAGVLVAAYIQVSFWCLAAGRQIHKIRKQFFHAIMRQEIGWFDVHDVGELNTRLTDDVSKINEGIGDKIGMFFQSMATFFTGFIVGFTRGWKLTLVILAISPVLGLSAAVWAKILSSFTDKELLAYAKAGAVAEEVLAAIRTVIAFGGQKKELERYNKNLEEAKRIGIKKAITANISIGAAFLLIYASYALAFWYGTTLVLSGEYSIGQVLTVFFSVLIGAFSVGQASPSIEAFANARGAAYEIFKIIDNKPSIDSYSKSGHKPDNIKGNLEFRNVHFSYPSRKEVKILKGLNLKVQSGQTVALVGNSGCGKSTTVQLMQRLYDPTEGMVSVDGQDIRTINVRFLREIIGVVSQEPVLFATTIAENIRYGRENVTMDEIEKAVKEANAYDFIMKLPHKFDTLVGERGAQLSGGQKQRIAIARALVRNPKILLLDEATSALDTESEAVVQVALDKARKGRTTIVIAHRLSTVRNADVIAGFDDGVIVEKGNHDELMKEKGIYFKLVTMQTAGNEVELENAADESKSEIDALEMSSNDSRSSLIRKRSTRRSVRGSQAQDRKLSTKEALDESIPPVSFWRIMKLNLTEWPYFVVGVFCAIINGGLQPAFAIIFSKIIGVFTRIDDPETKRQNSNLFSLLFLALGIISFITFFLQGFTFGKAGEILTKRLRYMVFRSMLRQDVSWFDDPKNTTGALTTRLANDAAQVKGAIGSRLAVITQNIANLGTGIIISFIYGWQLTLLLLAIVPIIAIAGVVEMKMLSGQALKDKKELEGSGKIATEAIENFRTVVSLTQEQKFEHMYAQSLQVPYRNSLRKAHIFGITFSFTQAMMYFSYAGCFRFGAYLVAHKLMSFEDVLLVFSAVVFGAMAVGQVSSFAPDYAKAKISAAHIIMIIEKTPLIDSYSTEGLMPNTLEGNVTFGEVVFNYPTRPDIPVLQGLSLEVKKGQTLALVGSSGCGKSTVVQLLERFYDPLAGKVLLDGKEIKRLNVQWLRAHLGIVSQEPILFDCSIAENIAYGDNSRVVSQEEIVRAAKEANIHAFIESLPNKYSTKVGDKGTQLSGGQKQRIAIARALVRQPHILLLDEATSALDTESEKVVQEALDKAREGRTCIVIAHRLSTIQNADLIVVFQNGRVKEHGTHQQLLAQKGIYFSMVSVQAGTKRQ

As to `C[C@@H]1[C@@H](N(C)S(C)(=O)=O)CN1c1ccc2c3cc(ncc13)Nc1ccnc(n1)-c1cnn(C)c1OCCC2`, the “Area Under the Curve AUC0-24h” value in data set [1] (15 mg/kg) is 6648 ng·h/mL. In addition, the “Half-life T1/2” value in data set [1] (15 mg/kg) is 4.7 h. In data set [1] (15 mg/kg), the “Maximum Concentration Cmax” value was found to be 1082 ng/mL. For the same molecule, the IC50 in the data set with A431 was determined as 746 nM; in data set [2], 2.6 nM; in the data set on Ba/F3 EGFR wt+EGF, 152 nM; in the data set on PC9 it was 7.5 nM; in the data set with NCI-H1975, 3.3 nM; in the data set with Ba/F3 (EGFR-L858R/C797S) it was 3.9 nM. For the same molecule, the ER (Efflux Ratio) at P-gp is 3.2.
Turning to `Cc1nn(C)c2c1-c1nccc(n1)Nc1cc3c(ccc(N4C[C@H](CS(C)(=O)=O)[C@H]4C)c3cn1)C(C)C(F)(F)CO2` (single isomer, unassigned), the “Area Under the Curve AUC0-24h” value in data set [1] (20 mg/kg) came to 35072 ng·h/mL. In data set [1] (20 mg/kg), the “Half-life T1/2” value was determined as 4.2 h. Also, the “Maximum Concentration Cmax” value in data set [1] (20 mg/kg) is given as 4540 ng/mL. Moreover, the IC50 in the data set on A431 turned out to be 695 nM; in data set [2], 1.4 nM; in the data set on Ba/F3 EGFR wt+EGF, 196 nM; in the data set on PC9, 1 nM; in the data set with NCI-H1975, 3.1 nM; with Ba/F3 (EGFR-L858R/C797S) it was 0.8 nM. At P-gp, the ER (Efflux Ratio) was 0.9.
Take `Cc1cc2nc(n1)-c1cnccc1OCCCc1ccc(N3C[C@H](N(C)S(C)(=O)=O)[C@H]3C)c3cnc(cc13)N2`: the IC50 with A431 worked out at 1240 nM; in data set [2], 3.5 nM; with Ba/F3 EGFR wt+EGF it was 372 nM; in the data set with PC9, 18 nM; in the data set on NCI-H1975, 33 nM; in the data set with Ba/F3 (EGFR-L858R/C797S), 2.8 nM.
With `C[C@@H]1[C@@H](N(C)S(C)(=O)=O)CN1c1ccc2c3cc(ncc13)Nc1ccnc(n1)-c1cnn(C)c1OCCCC2`, the IC50 in the data set on A431 amounted to 2130 nM; in data set [2], 3 nM; with Ba/F3 EGFR wt+EGF it was 895 nM; in the data set with PC9, 5.1 nM; in the data set on NCI-H1975 it was 5.5 nM; with Ba/F3 (EGFR-L858R/C797S), 4 nM. Moreover, the ER (Efflux Ratio) on P-gp came to 1.7.
With `Cc1nn(C)c2c1-c1nccc(n1)Nc1cc3c(ccc(N4C[C@H](N(C5CC5)S(C)(=O)=O)[C@H]4C)c3cn1)C(C)C(F)(F)CO2` (single isomer, unassigned), the “Area Under the Curve AUC0-24h” value in data set [1] (10 mg/kg) came to 31408 ng·h/mL. The “Half-life T1/2” value in data set [1] (10 mg/kg) was found to be 4.6 h. Further, the “Maximum Concentration Cmax” value in data set [1] (10 mg/kg) is on record as 2857 ng/mL. The IC50 is 823 nM in the data set with A431; 2.1 nM in data set [2]; 256 nM in the data set on Ba/F3 EGFR wt+EGF; 1.7 nM in the data set with PC9; 1.2 nM in the data set with NCI-H1975; 0.8 nM with Ba/F3 (EGFR-L858R/C797S).
Regarding `CC1CCOc2ccncc2-c2nccc(n2)Nc2cc3c1ccc(N1C[C@H](N(C)S(C)(=O)=O)[C@H]1C)c3cn2` (single isomer, unassigned), the IC50 worked out at 327 nM with A431; 1.2 nM in data set [2]; 80 nM in the data set on Ba/F3 EGFR wt+EGF; 0.5 nM in the data set on PC9; 0.4 nM in the data set with NCI-H1975; 0.8 nM in the data set on Ba/F3 (EGFR-L858R/C797S).
As for `Cc1nn(C)c2c1-c1nccc(n1)Nc1cc3c(ccc(N4C[C@H](CS(C)(=O)=O)[C@H]4C)c3cn1)C(C)CCO2` (single isomer, unassigned), the IC50 in the data set with A431 was 548 nM; in data set [2], 1.5 nM; in the data set with Ba/F3 EGFR wt+EGF, 160 nM; with PC9, 0.6 nM; with NCI-H1975, 1 nM; with Ba/F3 (EGFR-L858R/C797S), 0.9 nM.
Turning to `CC1CCOc2c(cnn2C)-c2nccc(n2)Nc2cc3c1ccc(N1C[C@H](N(C)S(C)(=O)=O)[C@H]1C)c3cn2` (single isomer, unassigned), in data set [1] (15 mg/kg), the “Area Under the Curve AUC0-24h” value is 2154 ng·h/mL. Also, the “Half-life T1/2” value in data set [1] (15 mg/kg) is given as 1.0 h. The “Maximum Concentration Cmax” value in data set [1] (15 mg/kg) is 672 ng/mL. In addition, the IC50 in the data set on A431 worked out at 117 nM; in data set [2], 0.7 nM; with Ba/F3 EGFR wt+EGF, 12 nM; in the data set with PC9 it was 0.3 nM; in the data set with NCI-H1975, 0.7 nM; in the data set with Ba/F3 (EGFR-L858R/C797S) it was 0.2 nM. On P-gp, the ER (Efflux Ratio) came out at 1.5.
Regarding `Cc1nn(C)c2c1-c1nccc(n1)Nc1cc3c(ccc(N4C[C@H](N(C)S(C)(=O)=O)[C@H]4C)c3cn1)C(C)CCO2` (single isomer, unassigned), in data set [1] (10 mg/kg), the “Area Under the Curve AUC0-24h” value is 10741 ng·h/mL. Further, the “Half-life T1/2” value in data set [1] (10 mg/kg) is recorded as 3.2 h. Moreover, the “Maximum Concentration Cmax” value in data set [1] (10 mg/kg) is 953 ng/mL. Further, the IC50 is 363 nM with A431; 0.6 nM in data set [2]; 104 nM in the data set with Ba/F3 EGFR wt+EGF; 0.4 nM with PC9; 0.5 nM with NCI-H1975; 0.14 nM in the data set on Ba/F3 (EGFR-L858R/C797S). For the same molecule, the ER (Efflux Ratio) at P-gp stood at 0.4.
On to `CC1CCOc2ccncc2-c2nccc(n2)Nc2cc3c1ccc(N1C[C@H](CS(C)(=O)=O)[C@H]1C)c3cn2` (single isomer, unassigned), for which the IC50 in the data set on A431 is 395 nM; in data set [2], 0.9 nM; in the data set on Ba/F3 EGFR wt+EGF it was 63 nM; with PC9, 0.3 nM; in the data set with NCI-H1975, 0.3 nM; in the data set on Ba/F3 (EGFR-L858R/C797S), 0.4 nM. Further, on P-gp, the ER (Efflux Ratio) stood at 1.
With `Cc1nccc2c1-c1nccc(n1)Nc1cc3c(ccc(N4C[C@H](N(C)S(C)(=O)=O)[C@H]4C)c3cn1)C(C)CCO2` (single isomer, unassigned), the “Area Under the Curve AUC0-24h” value in data set [1] (15 mg/kg) is 13075 ng·h/mL. In data set [1] (15 mg/kg), the “Half-life T1/2” value turned out to be 3.0 h. For the same molecule, the “Maximum Concentration Cmax” value in data set [1] (15 mg/kg) was found to be 2950 ng/mL. The IC50 in the data set on A431 came out at 582 nM; in data set [2] it was 2.5 nM; in the data set with Ba/F3 EGFR wt+EGF, 106 nM; in the data set on PC9 it was 0.2 nM; in the data set with NCI-H1975, 2.8 nM; in the data set on Ba/F3 (EGFR-L858R/C797S), 1 nM.
Take `Cc1nn(C)c2c1-c1nccc(n1)Nc1cc3c(ccc(N4C[C@H](N(C5CC5)S(C)(=O)=O)[C@H]4C)c3cn1)C(C)CCO2` (single isomer, unassigned): the IC50 with A431 was 653 nM; in data set [2], 1.2 nM; with Ba/F3 EGFR wt+EGF, 210 nM; in the data set with PC9, 0.5 nM; in the data set on NCI-H1975, 0.9 nM; in the data set on Ba/F3 (EGFR-L858R/C797S) it was 0.6 nM.
With `CC1CCOc2c(cnn2C)-c2nccc(n2)Nc2cc3c1ccc(N1C[C@H](CS(C)(=O)=O)[C@H]1C)c3cn2` (stereo partly shown), the IC50 with A431 stood at 154 nM; in data set [2] it was 1.3 nM; in the data set with Ba/F3 EGFR wt+EGF, 19 nM; in the data set on PC9, 5.3 nM; in the data set with NCI-H1975, 0.5 nM; with Ba/F3 (EGFR-L858R/C797S) it was 0.7 nM.
Consider `CC1c2ccc(N3C[C@H](CS(C)(=O)=O)[C@H]3C)c3cnc(cc23)Nc2ccnc(n2)-c2cnn(C)c2OCC1(F)F` (single isomer, unassigned), for which the “Area Under the Curve AUC0-24h” value in data set [1] (10 mg/kg) was found to be 22063 ng·h/mL. For the same molecule, in data set [1] (10 mg/kg), the “Half-life T1/2” value amounted to 5.4 h. Moreover, the “Maximum Concentration Cmax” value in data set [1] (10 mg/kg) was 1416 ng/mL. Further, the IC50 with A431 was 847 nM; in data set [2], 0.9 nM; in the data set with Ba/F3 EGFR wt+EGF, 98 nM; with PC9, 4.7 nM; in the data set on NCI-H1975, 4.1 nM; with Ba/F3 (EGFR-L858R/C797S), 0.7 nM.
In the case of `C[C@@H]1[C@@H](N(C)S(C)(=O)=O)CN1c1ccc2c3cc(ncc13)Nc1ccnc(n1)-c1cnn(C)c1OCCN2C`, the IC50 with A431 was found to be 632 nM; in data set [2], 2.3 nM; with Ba/F3 EGFR wt+EGF, 133 nM; in the data set on PC9, 3.3 nM; in the data set with NCI-H1975, 1.9 nM; with Ba/F3 (EGFR-L858R/C797S) it was 4.1 nM. Also, the ER (Efflux Ratio) at P-gp was 3.2.

These data come from patent EP4843990A1, “AMINO HETEROARYL MACROCYCLIC COMPOUNDS AS WELL AS PREPARATION METHOD THEREFOR AND USE THEREOF” (dated 2026).
